Values quoted from earlier work in patent publication EP1200114B1, “PPAR DELTA INHIBITORS FOR THE TREATMENT OF CARDIOVASCULAR DISEASES” (priority 1999, dated 2001).

By UniProt entry, the sequences of proteins in these tests, tags left out. Where a name states a change or a piece, a line headed by the entry shows the natural chain unless it says otherwise.
UniProt Q03181, whole entry: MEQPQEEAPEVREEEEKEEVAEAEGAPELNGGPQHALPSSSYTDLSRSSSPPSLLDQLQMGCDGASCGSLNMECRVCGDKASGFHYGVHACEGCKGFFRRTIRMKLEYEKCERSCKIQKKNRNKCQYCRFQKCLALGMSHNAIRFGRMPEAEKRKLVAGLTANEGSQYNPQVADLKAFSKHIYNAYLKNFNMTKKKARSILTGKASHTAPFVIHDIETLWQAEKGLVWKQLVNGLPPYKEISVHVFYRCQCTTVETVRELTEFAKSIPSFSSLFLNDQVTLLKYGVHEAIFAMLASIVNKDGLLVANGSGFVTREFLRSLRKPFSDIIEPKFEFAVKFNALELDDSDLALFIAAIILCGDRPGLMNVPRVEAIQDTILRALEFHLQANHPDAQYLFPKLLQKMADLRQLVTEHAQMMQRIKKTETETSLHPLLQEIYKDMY

Target: hPPARδ (Homo sapiens, UniProt Q03181)
Conditions: radioactive ligand for PPARδ; cited from earlier work

CCCc1c(OCCCSc2ccc(CC(=O)O)cc2Cl)ccc2c(C(F)(F)F)noc12
Kd: 1 nM
